This is a selection; strong and weak results do not stand in their true shares. Active and inactive are the calls of the source. Rule as the data show it: active = activation above about 15%; inactive = the rest.

Sequences of proteins named here, by UniProt entry; tags and fusion partners are left off. A change or cut given only in a name is not applied to a line headed by its entry.
UniProt O08726: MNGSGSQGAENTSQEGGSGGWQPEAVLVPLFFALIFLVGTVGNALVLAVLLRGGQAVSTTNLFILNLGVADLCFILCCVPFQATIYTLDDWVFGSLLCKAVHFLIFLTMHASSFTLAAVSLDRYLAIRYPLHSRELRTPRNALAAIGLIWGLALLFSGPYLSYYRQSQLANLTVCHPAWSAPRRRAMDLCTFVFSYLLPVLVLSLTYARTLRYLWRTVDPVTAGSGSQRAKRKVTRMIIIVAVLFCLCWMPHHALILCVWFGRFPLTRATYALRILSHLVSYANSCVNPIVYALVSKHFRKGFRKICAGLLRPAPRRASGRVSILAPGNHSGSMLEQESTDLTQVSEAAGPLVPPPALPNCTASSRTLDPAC

For this experiment, the target named is Galanin receptor type 2 (Rattus norvegicus) (UniProt O08726). Kind of experiment: agonists of rat galanin receptor 2 (GALR2) (AID 833). The settings on record: cell-based GALR2 agonist screen; at 10 µM; active compounds read high.
On to `CCOC(=O)/C(=N/Nc1ccc([N+](=O)[O-])cc1)N1CC1`, for which the activation was inactive: -7.58%.
As for `O=C(OC1CN2CCC1CC2)c1cccc([N+](=O)[O-])c1` (configuration not stated), the activation was inactive: -6.96%.
